pKi: −log10 of the molar value.
Target: NDM-1 (Klebsiella pneumoniae, UniProt C7C422)
Assay: biochemical

Protein sequences, listed by entry. Tags and fused reporters are not part of them.
UniProt C7C422, whole entry, looked up, species assumed: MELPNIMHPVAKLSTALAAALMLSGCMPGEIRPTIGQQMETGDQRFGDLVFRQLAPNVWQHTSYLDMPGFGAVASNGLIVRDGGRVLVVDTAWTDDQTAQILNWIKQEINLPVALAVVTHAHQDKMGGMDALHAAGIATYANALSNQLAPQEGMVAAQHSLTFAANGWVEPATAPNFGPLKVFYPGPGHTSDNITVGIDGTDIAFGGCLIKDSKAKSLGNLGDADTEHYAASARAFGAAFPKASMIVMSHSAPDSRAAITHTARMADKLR

## CN(C)C(=O)c1ccc(CNCc2ccc(O)c(C(=O)O)c2)s1 [CDD-2350, 5-((((5-(dimethylcarbamoyl)thiophen-2-yl)methyl)amino)methyl)-2-hydroxybenzoic acid]
  pKi: < 4.00

Source: patent publication US20250325542A1, “INHIBITORS OF ANTIMOCROBIAL RESISTANCE AND METHOS USING SAME” (Baylor College of Medicine, priority 2022, published 2025)
